Reference: patent US20050054025A1 (priority 2003, published 2005)

Sequences of proteins named here, by UniProt entry; tags and fusion partners are left off. A change or cut given only in a name is not applied to a line headed by its entry.
UniProt P22303: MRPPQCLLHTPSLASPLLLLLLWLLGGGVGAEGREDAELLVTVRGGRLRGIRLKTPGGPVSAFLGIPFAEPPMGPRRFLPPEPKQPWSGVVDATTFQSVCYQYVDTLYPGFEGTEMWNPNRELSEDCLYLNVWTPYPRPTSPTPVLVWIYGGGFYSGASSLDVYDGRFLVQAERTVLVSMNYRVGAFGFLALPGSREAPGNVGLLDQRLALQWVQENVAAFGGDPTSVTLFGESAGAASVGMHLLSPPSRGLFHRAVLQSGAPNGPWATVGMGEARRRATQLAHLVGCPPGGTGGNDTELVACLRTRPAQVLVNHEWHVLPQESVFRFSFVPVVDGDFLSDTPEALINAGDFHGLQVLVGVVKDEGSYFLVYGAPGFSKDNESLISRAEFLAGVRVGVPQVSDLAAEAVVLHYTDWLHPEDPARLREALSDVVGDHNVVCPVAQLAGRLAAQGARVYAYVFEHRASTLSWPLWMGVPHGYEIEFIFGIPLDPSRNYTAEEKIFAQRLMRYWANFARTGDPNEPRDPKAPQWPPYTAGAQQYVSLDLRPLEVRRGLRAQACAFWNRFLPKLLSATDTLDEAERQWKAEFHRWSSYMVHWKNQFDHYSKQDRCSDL

Columns and labels:
[1] = target: acetylcholinesterase (Homo sapiens, UniProt P22303); conditions: 5 mm dots, 20 min incubation; organophosphates oxidized with bromine
[2] = tested on: acetylcholinesterase; conditions: commercial kit, package insert; cited from earlier work
[3] = EPA drinking water table, Summer 2002; cited from earlier work

**Q.** With Parathion (methyl) as the substance, how does the “Porex Dot Test IC20” value [1] read?
**A.** The value was 2 ng/mL.

**Q.** And the “EnviroLogix IC20” value [2]?
**A.** The value was 63 μg/L.

**Q.** And the HA [3]?
**A.** The HA was 2 µg/L.
